# Assay results published in patent publication US9302003B2, “Compositions comprising a radiosensitizer and an anti-cancer agent and methods of uses thereof” (priority 2009, dated 2016).
# System: Fischer rats
# Type: in vivo
# Conditions: 1 ml/rat intra-carotid, platinum drugs 3 mg/ml, LipoGold 0.00289 mg/ml
smiles,measurement,value
O=C1[O][Pt]2([NH][C@@H]3CCCC[C@H]3[NH]2)[O]C1=O [oxaliplatin],apparent toxicity,apparent high toxicity
